Values quoted from earlier work in patent US8017627B2.

System: pain
Details: plain tablets for p.n. use

Structure (SMILES): CN1CC[C@]23c4c5ccc(O)c4O[C@H]2[C@@H](O)C=C[C@H]3[C@H]1C5
- duration of effect: 4 to 6 h
